Reference: article PMC2709242

Target: Rap80 tUIM peptide (His6-tagged, fluorescently labeled) (human)
Test: fluorescence polarisation

“K48-linked tetraubiquitin (from UniProt P0CG48 1-76) (complex)” was tested, and the Kd was 14 µM.
